Experimental data: US7119208B2, “Anti-sickling agents” (Virginia Commonwealth University, priority 2003, dated 2006)
Like-named read-outs stand apart in the source and are kept apart here.

Tests used:
[1] = tested on: rats; details: cited from earlier work; for acute oral LD50: rats
[2] = tested on: SS cells; assay: Oxygen equilibrium studies with homozygous sickle red blood cells; assay type: cell-based, human; details: 5 mM, FIG. 3
Procedure: SS cells were suspended in PBS to a final hematocrit of 10%. […] A 40 uL aliquot of this suspension was added to 4 ml Hemox buffer and subjected to oxygen equilibrium analysis (37° C.) using a Hemox-Analyzer (TCS Scientific Corp., Southampton, Pa.) (Asakura, 1979).

## O=Cc1ccc(CO)o1 [Compound 5HMF, 5-hydroxymethyl-2-furfuraldehyde]
[1]; US EPA, 1992
  LD50: 2500 to 5000 mg/kg
[1]; females
  acute oral LD50: 2500 to 5000 mg/kg
[1]; males
  acute oral LD50: 2500 mg/kg
[2]
  shift of oxygen equilibrium curve of SS cell suspensions: significant left shift
